Reference: paper PMC3124622 (Biochemical and biophysical research communications, 2011)

Experiments:
[1] = Solubility limit of biopterin; format: physicochemical; settings: in TGT inhibition assay
[2] = biological target: E. coli TGT C145V/T146V/P147N/V217G (Escherichia coli, UniProt P0A847, C145V/P147N/T146V/V217G); test: Pteridine inhibition of guanine incorporation; format: biochemical; settings: C145V/T146V/P147N/V217G (quadruple) mutant; vs guanine; 20 μM tRNA, pH 7.3
[3] = biological target: E. coli TGT C145V/T146V (Escherichia coli, UniProt P0A847, C145V/T146V); test: Pteridine inhibition of guanine incorporation; format: biochemical; settings: C145V/T146V mutant; vs guanine; 20 μM tRNA, pH 7.3
[4] = biological target: E. coli TGT Wild-Type (Escherichia coli, UniProt P0A847); test: Pteridine inhibition of guanine incorporation; format: biochemical; settings: wild-type enzyme; KI was above the biopterin solubility limit
[5] = biological target: E. coli TGT C145V/T146V/V217G (Escherichia coli, UniProt P0A847, C145V/T146V/V217G); test: Pteridine inhibition of guanine incorporation; format: biochemical; settings: C145V/T146V/V217G (triple) mutant; vs guanine; 20 μM tRNA, pH 7.3
[6] = biological target: E. coli TGT V217G (Escherichia coli, UniProt P0A847, V217G); test: Pteridine inhibition of guanine incorporation; format: biochemical; settings: V217G mutant; vs guanine; 20 μM tRNA, pH 7.3

Substance: biopterin
- maximum concentration dictated by solubility [1]: 3000 µM
- Ki [2]: 1050 µM
- Ki [3]: 550 µM
- Ki [4]: > 3000 µM
- Ki [5]: 160 µM
- Ki [6]: 550 µM
